Reference: paper PMC11653428, “5‐methyl‐2‐carboxamidepyrrole‐based novel dual mPGES‐1/sEH inhibitors as promising anticancer candidates” (Archiv Der Pharmazie, 2024)

Sequences of proteins named here, by UniProt entry; tags and fusion partners are left off.
UniProt P34913, whole entry: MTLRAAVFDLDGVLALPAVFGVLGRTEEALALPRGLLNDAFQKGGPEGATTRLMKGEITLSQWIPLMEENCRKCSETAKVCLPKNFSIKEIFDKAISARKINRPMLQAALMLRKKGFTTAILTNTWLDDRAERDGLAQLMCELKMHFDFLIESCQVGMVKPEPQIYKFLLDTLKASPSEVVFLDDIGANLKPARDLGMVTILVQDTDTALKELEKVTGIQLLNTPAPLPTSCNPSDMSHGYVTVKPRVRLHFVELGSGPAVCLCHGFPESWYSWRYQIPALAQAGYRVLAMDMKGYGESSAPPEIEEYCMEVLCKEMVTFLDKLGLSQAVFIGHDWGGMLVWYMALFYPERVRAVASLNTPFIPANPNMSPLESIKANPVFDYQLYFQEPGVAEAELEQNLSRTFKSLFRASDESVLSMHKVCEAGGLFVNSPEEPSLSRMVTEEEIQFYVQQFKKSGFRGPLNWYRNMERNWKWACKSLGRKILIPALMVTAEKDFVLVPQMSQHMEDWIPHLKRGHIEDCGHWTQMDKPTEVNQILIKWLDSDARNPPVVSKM

Target: T1, human recombinant sEH (Homo sapiens, UniProt P34913)
T1 construct: purchased 10011671
Experiment: Cell-free sEH activity assay (PHOME fluorescence, inhibitor screening kit)
Format: biochemical
Conditions: 5 µM

**Q.** With AUDA [reference compound] as the substance, how does the “Residual activity of sEH, mean ± SD (%)” value read?
**A.** 6.1 ± 0.8%
